Assay results published in US20150273025A1, “APYRASE TREATMENTS” (THE REGENTS OF THE UNIVERSITY OF MICHIGAN, priority 2012, published 2015).

Tested on: A. baumannii DMC1
Assay: Mouse wound model, viable bacteria at burn sites 24 hours after burn
Conditions: C57BL/6 mice, apyrase 1 U/ml, colistin 4 μg/ml

## apyrase
  reduction in viable bacteria number compared to control and colistin groups: ~1 log
